Assay results from publication PMC7093416, “Selective USP7 inhibition elicits cancer cell killing through a p53-dependent mechanism” (Scientific Reports, 2020).

Sequences of proteins named here, by UniProt entry; tags and fusion partners are left off.
UniProt Q93009, whole entry: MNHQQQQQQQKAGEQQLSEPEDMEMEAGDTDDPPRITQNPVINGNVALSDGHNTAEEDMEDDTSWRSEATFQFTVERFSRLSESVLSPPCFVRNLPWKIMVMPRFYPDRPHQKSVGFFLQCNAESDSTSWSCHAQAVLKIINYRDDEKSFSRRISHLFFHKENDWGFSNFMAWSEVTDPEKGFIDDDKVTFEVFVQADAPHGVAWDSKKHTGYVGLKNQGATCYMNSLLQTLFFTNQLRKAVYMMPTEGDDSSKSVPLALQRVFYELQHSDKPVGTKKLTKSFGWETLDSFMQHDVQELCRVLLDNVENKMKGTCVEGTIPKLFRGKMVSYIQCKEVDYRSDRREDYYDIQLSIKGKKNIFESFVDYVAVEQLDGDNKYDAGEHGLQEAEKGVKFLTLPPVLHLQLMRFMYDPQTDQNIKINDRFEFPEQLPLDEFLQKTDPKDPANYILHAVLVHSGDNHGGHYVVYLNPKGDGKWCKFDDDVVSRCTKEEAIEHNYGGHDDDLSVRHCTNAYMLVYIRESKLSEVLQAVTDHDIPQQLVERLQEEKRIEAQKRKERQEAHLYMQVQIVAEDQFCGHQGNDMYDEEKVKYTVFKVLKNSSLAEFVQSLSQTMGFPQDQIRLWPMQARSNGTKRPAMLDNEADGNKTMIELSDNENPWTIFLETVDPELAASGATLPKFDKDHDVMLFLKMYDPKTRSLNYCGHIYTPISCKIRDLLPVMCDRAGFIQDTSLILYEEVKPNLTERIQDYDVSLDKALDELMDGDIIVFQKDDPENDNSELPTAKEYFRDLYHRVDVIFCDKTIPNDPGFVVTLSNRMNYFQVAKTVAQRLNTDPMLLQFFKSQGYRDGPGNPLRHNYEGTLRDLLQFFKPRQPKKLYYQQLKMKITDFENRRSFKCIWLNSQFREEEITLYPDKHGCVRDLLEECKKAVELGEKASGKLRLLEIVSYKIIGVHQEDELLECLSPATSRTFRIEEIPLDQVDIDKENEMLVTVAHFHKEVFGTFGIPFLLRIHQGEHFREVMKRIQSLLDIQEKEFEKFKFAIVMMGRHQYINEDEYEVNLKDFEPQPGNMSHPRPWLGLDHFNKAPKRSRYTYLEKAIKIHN

Target: full-length USP7 (Homo sapiens, UniProt Q93009)
Assay: Ub-AMC enzymatic assay, full-length USP7, 6 h pre-incubation

USP7 inhibitory activity: retained USP7 inhibitory activity
SMILES: C[C@@H]1NC(=O)N[C@@H]1CCCCCC(=O)NCCOCCOCCOCCC(=O)N1CCN(CC(=O)Nc2ccc3c(=O)n(CC4(O)CCN(C(=O)[C@@H](CCCNC(=O)c5ccc6c(Cl)c7c(nc6c5)CCCC7)Cc5ccccc5)CC4)cnc3c2)CC1
